Earlier results as cited in article PMC10019135.
pKd: −log10 of the molar value.

Chains of the proteins cited; added tags and fusions are not shown. Residues count along the entry.
UniProt P01589, 22-240, chain 1 of 3: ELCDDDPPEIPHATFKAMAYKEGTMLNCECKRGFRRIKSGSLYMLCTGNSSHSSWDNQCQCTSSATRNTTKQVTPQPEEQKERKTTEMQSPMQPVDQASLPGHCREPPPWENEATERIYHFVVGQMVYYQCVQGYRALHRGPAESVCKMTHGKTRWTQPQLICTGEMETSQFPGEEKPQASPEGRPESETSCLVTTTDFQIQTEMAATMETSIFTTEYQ
UniProt P60568, 21-153: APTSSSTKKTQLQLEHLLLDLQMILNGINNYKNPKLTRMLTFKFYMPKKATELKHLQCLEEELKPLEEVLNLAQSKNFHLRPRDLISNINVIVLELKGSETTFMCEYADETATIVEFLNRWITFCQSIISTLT

Target: IL-2Rα/β/γc heterotrimer (Homo sapiens) (UniProt P01589)

IL-2 (from UniProt P60568)
pKd: 11.00
